# Measured values taken from US20240360082A1, “SUBSTITUTED PYRIDONE COMPOUNDS USEFUL TO TREAT ORTH[…]” (priority 2021, published 2024).
# Where two headings read alike, the source gives them in different places.
# Tested on: influenza virus (multiple flu strains)
# Experiment: organism not typed
# Conditions: MDCK
# [1] = read-out: NA Alaska H3N2, NA assay, Alaska H3N2 strain
# [2] = read-out: NA CAL H1N1, NA assay, CAL H1N1 strain
Structure (SMILES),IC50 [1] [µM],IC50 [2] [µM]
"NC(=O)c1cc(-c2ccc(OCc3ccc4c(c3)OCCCO4)cc2)c(C(F)(F)F)[nH]c1=O [Example 149, 5-(4-((3,4-dihydro-2H-benzo[b][1,4]dioxepin-7-yl)methoxy)phenyl)-2-oxo-6-(trifluoromethyl)-1,2-dihydropyridine-3-carboxamide]",1 to 5,10 to 25
"NC(=O)c1cc(-c2ccc(OCc3cnc(O)nc3)cc2)c(C(F)(F)F)[nH]c1=O [Example 150, 5-(4-((2-hydroxypyrimidin-5-yl)methoxy)phenyl)-2-oxo-6-(trifluoromethyl)-1,2-dihydropyridine-3-carboxamide]",1 to 5,25 to 50
"NC(=O)c1cc(-c2ccc(OCc3cnc(OCC4COC4)nc3)cc2)c(C(F)(F)F)[nH]c1=O [Example 151, 5-(4-((2-(oxetan-3-ylmethoxy)pyrimidin-5-yl)methoxy)phenyl)-2-oxo-6-(trifluoromethyl)-1,2-dihydropyridine-3-carboxamide]",1 to 5,25 to 50
"NC(=O)c1cc(-c2ccc(OCc3cnc(OCCO)nc3)cc2)c(C(F)(F)F)[nH]c1=O [Example 152, 5-(4-((2-(2-hydroxyethoxy)pyrimidin-5-yl)methoxy)phenyl)-2-oxo-6-(trifluoromethyl)-1,2-dihydropyridine-3-carboxamide]",5 to 10,10 to 25
"CCCOc1ncc(COc2ccc(-c3cc(C(N)=O)c(=O)[nH]c3C(F)(F)F)cc2)cn1 [Example 153, 2-oxo-5-(4-((2-propoxypyrimidin-5-yl)methoxy)phenyl)-6-(trifluoromethyl)-1,2-dihydropyridine-3-carboxamide]",0.1 to 1,1 to 5
"NC(=O)c1cc(-c2ccc(OCc3cnc(OC4CCOC4)nc3)cc2)c(C(F)(F)F)[nH]c1=O (centres unmarked) [Example 154, 2-oxo-5-(4-((2-((tetrahydrofuran-3-yl)oxy)pyrimidin-5-yl)methoxy)phenyl)-6-(trifluoromethyl)-1,2-dihydropyridine-3-carboxamide]",0.1 to 1,5 to 10
"NC(=O)c1cc(-c2ccc(OCc3cnc(OC4CCCC4)nc3)cc2)c(C(F)(F)F)[nH]c1=O [Example 155, 5-(4-((2-(cyclopentyloxy)pyrimidin-5-yl)methoxy)phenyl)-2-oxo-6-(trifluoromethyl)-1,2-dihydropyridine-3-carboxamide]",0.1 to 1,1 to 5
"NC(=O)c1cc(-c2ccc(OCc3cnc(OCC4CCO4)nc3)cc2)c(C(F)(F)F)[nH]c1=O (centres unmarked) [Example 156, 5-(4-((2-(oxetan-2-ylmethoxy)pyrimidin-5-yl)methoxy)phenyl)-2-oxo-6-(trifluoromethyl)-1,2-dihydropyridine-3-carboxamide]",1 to 5,25 to 50
"NC(=O)c1cc(-c2ccc(OCc3cnc(OCC4CCOC4)nc3)cc2)c(C(F)(F)F)[nH]c1=O (centres unmarked) [Example 157, 2-oxo-5-(4-((2-((tetrahydrofuran-3-yl)methoxy)pyrimidin-5-yl)methoxy)phenyl)-6-(trifluoromethyl)-1,2-dihydropyridine-3-carboxamide]",0.1 to 1,5 to 10
"CNc1ncc(COc2ccc(-c3cc(C(N)=O)c(=O)[nH]c3C(F)(F)F)cc2)cn1 [Example 158, 5-(4-((2-(methylamino)pyrimidin-5-yl)methoxy)phenyl)-2-oxo-6-(trifluoromethyl)-1,2-dihydropyridine-3-carboxamide]",0.01 to 0.1,1 to 5
"NC(=O)c1cc(-c2ccc(OCc3cnc(NC4CCCC4)nc3)cc2)c(C(F)(F)F)[nH]c1=O [Example 159, 5-(4-((2-(cyclopentylamino)pyrimidin-5-yl)methoxy)phenyl)-2-oxo-6-(trifluoromethyl)-1,2-dihydropyridine-3-carboxamide]",0.01 to 0.1,0.1 to 1
"CN(C)c1ncc(COc2ccc(-c3cc(C(N)=O)c(=O)[nH]c3C(F)(F)F)cc2)cn1 [Example 160, 5-(4-((2-(dimethylamino)pyrimidin-5-yl)methoxy)phenyl)-2-oxo-6-(trifluoromethyl)-1,2-dihydropyridine-3-carboxamide]",0.1 to 1,10 to 25
NC(=O)c1cc(-c2ccc(OCc3cnc(NCC4CC4)nc3)cc2)c(C(F)(F)F)[nH]c1=O [Example 161],0.01 to 0.1,0.1 to 1
"NC(=O)c1cc(-c2ccc(OCc3cnc(NCCO)nc3)cc2)c(C(F)(F)F)[nH]c1=O [Example 162, 5-(4-((2-((2-hydroxyethyl)amino)pyrimidin-5-yl)methoxy)phenyl)-2-oxo-6-(trifluoromethyl)-1,2-dihydropyridine-3-carboxamide]",0.1 to 1,10 to 25
"NC(=O)c1cc(-c2ccc(OCc3cnc(NC4CC4)nc3)cc2)c(C(F)(F)F)[nH]c1=O [Example 163, 5-(4-((2-(cyclopropylamino)pyrimidin-5-yl)methoxy)phenyl)-2-oxo-6-(trifluoromethyl)-1,2-dihydropyridine-3-carboxamide]",0.1 to 1,1 to 5
"CCCCCCCNc1ncc(COc2ccc(-c3cc(C(N)=O)c(=O)[nH]c3C(F)(F)F)cc2)cn1 [Example 164, 5-(4-((2-(heptylamino)pyrimidin-5-yl)methoxy)phenyl)-2-oxo-6-(trifluoromethyl)-1,2-dihydropyridine-3-carboxamide]",0.01 to 0.1,0.1 to 1
"NC(=O)c1cc(-c2ccc(OCc3cnc(NC4COC4)nc3)cc2)c(C(F)(F)F)[nH]c1=O [Example 165, 5-(4-((2-(oxetan-3-ylamino)pyrimidin-5-yl)methoxy)phenyl)-2-oxo-6-(trifluoromethyl)-1,2-dihydropyridine-3-carboxamide]",0.1 to 1,1 to 5
"NC(=O)c1cc(-c2ccc(OCc3cnc(NC4CCOC4)nc3)cc2)c(C(F)(F)F)[nH]c1=O (centres unmarked) [Example 166, 2-oxo-5-(4-((2-((tetrahydrofuran-3-yl)amino)pyrimidin-5-yl)methoxy)phenyl)-6-(trifluoromethyl)-1,2-dihydropyridine-3-carboxamide]",0.1 to 1,1 to 5
"NC(=O)c1cc(-c2ccc(OCc3cncnc3NC3CCCC3)cc2)c(C(F)(F)F)[nH]c1=O [Example 174, 5-(4-((4-(cyclopentylamino)pyrimidin-5-yl)methoxy)phenyl)-2-oxo-6-(trifluoromethyl)-1,2-dihydropyridine-3-carboxamide]",0.1 to 1,1 to 5
"NC(=O)c1cc(-c2ccc(COc3cccnc3)cc2)c(C(F)(F)F)[nH]c1=O [Example 177, 2-oxo-5-(4-((pyridin-3-yloxy)methyl)phenyl)-6-(trifluoromethyl)-1,2-dihydropyridine-3-carboxamide]",0.1 to 1,1 to 5
"NC(=O)c1cc(-c2ccc(OCc3cncc(-c4ccoc4)c3)cc2)c(C(F)(F)F)[nH]c1=O [Example 178, 5-(4-((5-(furan-3-yl)pyridin-3-yl)methoxy)phenyl)-2-oxo-6-(trifluoromethyl)-1,2-dihydropyridine-3-carboxamide]",0.01 to 0.1,0.1 to 1
"NC(=O)c1cc(-c2ccc(OCc3cncc(N4CCOCC4)c3)cc2)c(C(F)(F)F)[nH]c1=O [Example 179, 5-(4-((5-morpholinopyridin-3-yl)methoxy)phenyl)-2-oxo-6-(trifluoromethyl)-1,2-dihydropyridine-3-carboxamide]",0.1 to 1,1 to 5
"NC(=O)c1cc(-c2ccc(OCc3cncc(C4CCOC4)c3)cc2)c(C(F)(F)F)[nH]c1=O (centres unmarked) [Example 180, 2-oxo-5-(4-((5-(tetrahydrofuran-3-yl)pyridin-3-yl)methoxy)phenyl)-6-(trifluoromethyl)-1,2-dihydropyridine-3-carboxamide]",0.1 to 1,1 to 5
"NC(=O)c1cc(-c2ccc(OCc3cncc(C4(O)COC4)c3)cc2)c(C(F)(F)F)[nH]c1=O [Example 181, 5-(4-((5-(3-hydroxyoxetan-3-yl)pyridin-3-yl)methoxy)phenyl)-2-oxo-6-(trifluoromethyl)-1,2-dihydropyridine-3-carboxamide]",5 to 10,10 to 25
"NC(=O)c1cc(-c2ccc(OCc3cncc(C4(F)COC4)c3)cc2)c(C(F)(F)F)[nH]c1=O [Example 182, 5-(4-((5-(3-fluorooxetan-3-yl)pyridin-3-yl)methoxy)phenyl)-2-oxo-6-(trifluoromethyl)-1,2-dihydropyridine-3-carboxamide]",0.1 to 1,1 to 5
"COCC(Oc1ccc(-c2cc(C(N)=O)c(=O)[nH]c2C(F)(F)F)cc1)c1cccnc1 (centres unmarked) [Example 186, 5-(4-(2-methoxy-1-(pyridin-3-yl)ethoxy)phenyl)-2-oxo-6-(trifluoromethyl)-1,2-dihydropyridine-3-carboxamide]",1 to 5,1 to 5
"NC(=O)c1cc(-c2ccc(OC(CO)c3cnccn3)cc2)c(C(F)(F)F)[nH]c1=O (centres unmarked) [Example 187, 5-(4-(2-hydroxy-1-(pyrazin-2-yl)ethoxy)phenyl)-2-oxo-6-(trifluoromethyl)-1,2-dihydropyridine-3-carboxamide]",0.1 to 1,1 to 5
"CC(=O)N1CCOC(COc2ccc(-c3cc(C(N)=O)c(=O)[nH]c3C(F)(F)F)cc2)C1 (centres unmarked) [Example 188, 5-(4-((4-acetylmorpholin-2-yl)methoxy)phenyl)-2-oxo-6-(trifluoromethyl)-1,2-dihydropyridine-3-carboxamide]",1 to 5,–
"NC(=O)c1cc(-c2ccc(OCC3CNCCO3)cc2)c(C(F)(F)F)[nH]c1=O (centres unmarked) [Example 189, 5-(4-(morpholin-2-ylmethoxy)phenyl)-2-oxo-6-(trifluoromethyl)-1,2-dihydropyridine-3-carboxamide]",1 to 5,10 to 25
"CC(C)(C)OC(=O)N1CCOC(COc2ccc(-c3cc(C(N)=O)c(=O)[nH]c3C(F)(F)F)cc2)C1 (centres unmarked) [Example 190, tert-butyl 2-((4-(5-carbamoyl-6-oxo-2-(trifluoromethyl)-1,6-dihydropyridin-3-yl)phenoxy)methyl)morpholine-4-carboxylate]",0.1 to 1,5 to 10
